From patent US20100267731A1, “USE OF TRANSFORMING GROWTH FACTOR-B RECEPTOR INHIBITORS TO SUPPRESS OCULAR SCARRING” (Summa Health Systems, LLC, priority 2009, published 2010)

Tested on: subconjunctival tissue fibroblast outgrowth
Experiment: Subconjunctival tissue fibroblast outgrowth assay ex vivo
Type: cell-based, New Zealand white rabbit
Procedure: Under an ophthalmic surgical microscope, subconjunctival tissues were dissected from the surgical site and 180 (6-o'clock position) from the surgical site (the 180° control). Each biopsy specimen (explant) was placed in a 25 cm^2 cell culture flask with complete media. […] The cell outgrowth, in mm, from the edge of each explant was observed, and the length of the outgrowth in 4 quadrants was measured.

CO[C@@]12[C@H](COC(N)=O)C3=C(C(=O)C(C)=C(N)C3=O)N1C[C@@H]1N[C@@H]12 [MMC, mitomycin C]
difference in cell outgrowth versus untreated group (explants taken five days after GFS): a significant difference
cell outgrowth length, explant from surgical site (surgical site, over 18 days): less than 2 mm
